High-throughput results as filed in PubChem.
An excerpt weighted towards active compounds, which were near 0.62% of everything screened.
IL2 activator – activates IL-2 in a cell-based reporter assay | IL-2 activation reporter assay, cell-based qHTS; stimulated with anti-CD3/CD4/CD28 beads; in transgenic mouse T cells | activation, % (series mostly up to about 46 µM) | 0.065% of 360,000 active; in the data active means activation above about 50%; inconclusive means mostly about 30% to 49%; further: 0% is about no effect
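Unstimulated transgenic mouse T cells, 750 per well, received compound and, after 60 minutes, anti-CD3/anti-CD4 bead plus anti-CD28 stimulation. EGFP and DsRed were quantified after 18 hours.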
miR-21 reporter – raises the signal of a miR-21 reporter | HeLa miR-21 FLuc reporter, luciferase, 48 h | Potency, µM (doses to about 38.3 µM), without a hit: at the top dose reporter change, positive = more light | 340,000 tested, under 10 active | AID 2288; active = well fitted rising curve with a large enough effect; inconclusive = small, poorly fitted or top-dose-only effect; inactive = no such curve, though single readings can be large or run the other way;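 note: % of control where 0% means no effect; miR-21 action dims this reporter so a rising signal means less miR-21 action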
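HeLa cells stably expressing CMV-driven firefly luciferase with a downstream miR-21 binding sequence, endogenously expressing miR-21, were treated with titrations (up to about 40uM final) for 48 hours at 37 degree Celsius. Luciferase luminescence was read after lysis.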
p53 reactivation – restores transcriptional activity of mutant p53 | Potency, µM (doses to about 92.2 µM), without a hit: at the top dose activity change, positive = activation, actives largely listed as activators | H1299 p53-A138V BP100-luciferase reporter, luminescence, 24 h | AID 504706 | 0.063% of 320,000 active; further: potency means the concentration at half of the fitted maximal effect; % of control where 0% means no effect; nearly all actives have a fitted effect of over 45% in size
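H1299 (p53-null), stable ts p53-A138V + BP100-Luc; 1000 cells/well, Opti-MEM/10% FBS; cpd 4 pt, 1:5; 24 h, 37 deg C, 5% CO2; detection reagent 10 min RT; luminescence.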
uPA surface inh – cell surface uPA generation inhibition. 0.31% of 330,000 active. cell surface uPA generation assay, qHTS. Potency, µM (series often up to 38.3 µM), for inactives: at the highest dose activity change, negative = inhibition, most hits filed as inhibitors; active means well fitted inhibition curve with a large enough effect; inconclusive means small, poorly fitted or top-dose-only effect; inactive means no such curve, though single readings can be large or run the other way; tested in mouse RAW 264.7 cells; further: potency means the concentration at half of the fitted maximal effect; on the % scale 0 is the no-effect control and ±100 the full control effect; nearly all actives have a fitted effect of over 55% in size
PINK1 modulator – modulators of PINK1 expression | PINK1 immunofluorescence, high-content cytometry, 24 h | Potency, µM (top dose mostly 76.6 µM), inactives show at the highest dose activation (PINK1 increase), most hits filed as activators | 0.2% of 410,000 active | AID 624263; active means well fitted activation curve with a large enough effect; inconclusive means small, poorly fitted or top-dose-only effect; cell line not stated here; further: potency means the concentration at half of the fitted maximal effect; % of control where 0% means no effect; nearly all actives have a fitted effect of over 65% in size
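Decision-based qHTS: stable cells, 24 h exposure to five compound concentrations, CCCP as control. Fixed cells stained for PINK1 plus nuclear, mitochondrial and cell markers, cytometer read.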
Epigenetic derep – derepresses silenced GFP reporter in murine cells; 0.2% of 280,000 active; Potency, µM (doses to about 53.9 µM), for inactives: top-dose GFP activation, usual class: activators; murine LDR cells, GFP reporter derepression, 30 h; further: potency means the concentration at half of the fitted maximal effect; % of control where 0% means no effect; nearly all actives have a fitted effect of over 60% in size
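Readout is the number of GFP-expressing murine LDR cells, counted by cytometry following washing. Cells were treated with compound for 30 h at 37 C; the stably integrated CMV-GFP locus is normally silent.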
* = called active by the depositor; u = inconclusive; x = no result given; [ ] = another dose, or the depositor's remark. Unless noted, the call rests on the fitted dose curve; in most records, active means well fitted curve in the direction sought with a large enough effect; inconclusive means small, poorly fitted or top-dose-only effect, or another doubt; inactive means no such curve, though single readings can be large; an effect the other way counts as inactive or inconclusive.

entry | SMILES | Epigenetic derep | p53 reactivation | IL2 activator
1 | COc1ccc(C2CN=NC23CCc2ccccc2C3=O)cc1 (stereo not drawn) | 0% | 6% | -1
2 | COc1ccc(C2CN=NC23CCCc2ccccc2C3=O)cc1 (stereo not drawn) | -1% | 8% | 1
3 | COc1cc(-c2nc3ccc(C)cn3c2NCc2ccccc2)ccc1SC1CCCCC1 | x | 2% | 0
4 | COc1cc(-c2nc3ccccn3c2NCc2ccccc2)ccc1SC1CCCCC1 | x | 13% | -1
5 | COc1cc(CN2CCOc3ccc(CN4CCC(O)(c5cccnc5)CC4)cc3C2)cc(OC)c1 | x | x | x
6 | CCOC(=O)c1sc(N)c(C(=O)Nc2ccc(C)cc2C)c1C | 0% | x | x
7 | Cc1c(N=Nc2c(-c3ccc([N+](=O)[O-])cc3)[nH]n(C(N)=S)c2=O)cccc1[N+](=O)[O-] | -2% | -2% | 0
8 | COc1ccc(OC)c(/C=N/Nc2nncn2/N=C/c2cc(OC)ccc2OC)c1 | 19% | -12% | -2
9 | COCC(=O)Nc1cc(C(=O)N2CCc3c([nH]c4ccccc34)C2)cc2nc(-c3ccccc3)n(C)c12 | x | x | x
10 | CCOc1ccc(NC(=O)/C(C#N)=C/c2ccc(N3CCCC3)c(C)c2)cc1 | 1% | -6% | 270*

entry | uPA surface inh | miR-21 reporter | PINK1 modulator
1 | 4.5µM* | 10% | 3%
2 | -15% | 10% | 1%
3 | 8.9µM* | x | u
4 | u | x | u
5 | x | x | 0%
6 | x | x | x
7 | -5% | -3% | 3.2µM*
8 | 10µM* | 12% | 9%
9 | x | x | 1%
10 | 2% | -1% | u

Next results.
entry | SMILES | Epigenetic derep | p53 reactivation | IL2 activator
11 | CCN(CC)S(=O)(=O)c1ccc(N2CCCCC2)c(NC(=O)/C(C#N)=C/c2ccc(OC)cc2)c1 | 2% | -6% | -1
12 | CCN1CCCC1CNCc1cc2ccc(SC)cc2nc1-c1cc(OC)ccc1OC (stereo not drawn) | x | x | x
13 | COC(=O)[C@H](CCSC)NC(=O)Cn1cnc(C(=O)Nc2ccc(C)c(C)c2)n1 | x | u | -1
14 | Cc1cc(=O)[nH]c(SCC(=O)Nc2ccc(Br)cc2)c1C#N | -1% | 4% | -2
15 | N=c1c(C(=O)NCc2ccc(F)cc2)cc2c(=O)n3ccccc3nc2n1Cc1cccnc1 | 0% | 0% | 178*
16 | Cc1cccn2c(=O)c3cc(S(=O)(=O)c4ccccc4)c(=N)n(Cc4ccco4)c3nc12 | u | 0% | 0
17 | Cc1cccn2c(=O)c3cc(C(=O)NC4CCCCC4)c(=N)n(Cc4ccc(F)cc4)c3nc12 | x | -14% | 154*
18 | Cc1cccn2c(=O)c3cc(S(=O)(=O)c4ccc(F)cc4)c(=N)n(Cc4ccco4)c3nc12 | 2% | 2% | 56*
19 | COc1ccc(Cl)cc1N1C(=O)[C@@H]2C[C@H]1CN2Cc1nc2ccccc2nc1C | x | x | x
20 | COc1cc2nc(CN(C)Cc3ccc(C(C)(C)C)cc3)[nH]c(=O)c2cc1OC | -2% | 7% | -1

entry | uPA surface inh | miR-21 reporter | PINK1 modulator
11 | 3% | -1% | -1%
12 | x | x | 0%
13 | 10µM* | x | 1%
14 | -1% | -6% | 16µM*
15 | -3% | 0% | u
16 | -5% | -20% | 0%
17 | 0% | -2% | 1%
18 | -16% | -2% | 2%
19 | x | x | 1%
20 | 3.5µM* | -2% | 2%

Following part:
entry | SMILES | Epigenetic derep | p53 reactivation | IL2 activator
21 | CCN(Cc1nc2cc(OC)c(OC)cc2c(=O)[nH]1)C(=O)c1ccc(S(=O)(=O)N(C)C)cc1 | -1% | 9% | -3
22 | Cc1c(C(=O)NCc2nccs2)cnn1-c1ncc2c(n1)-c1ccccc1CC2 | x | x | x
23 | CCOC(=O)Cn1c2ccc(OC)cc2c2nc3ccccc3nc21 | u | -10% | 51*
24 | COC(=O)Cn1c2ccc(OC)cc2c2nc3ccccc3nc21 | 0% | 29% | 2
25 | O=C[C@@H]1CCCN1C(=O)[C@@H]1CCCN1C(=O)OCc1ccccc1 | 0% | x | x
26 | COc1ccc(NC(=O)CSc2nc3ccccc3cc2Cc2ccccc2)cc1 | 1% | -3% | 0
27 | COc1cc(NC(=O)CSc2nc3ccccc3cc2Cc2ccccc2)cc(OC)c1 | 2% | 1% | -3
28 | CCCCOc1ccc(S(=O)(=O)n2c(C)nc3ccccc32)cc1 | 1% | 8% | -2
29 | CCOc1ccc(S(=O)(=O)n2c(C)nc3ccccc32)cc1 | -2% | 0% | -3
30 | Cc1cc(C)c2c(n1)sc1c(O)cc(=O)[nH]c12 | 1% | 0% | -3

entry | uPA surface inh | miR-21 reporter | PINK1 modulator
21 | -2% | 2% | -2%
22 | x | x | 2%
23 | 1% | 0% | 3%
24 | -2% | -1% | -2%
25 | x | x | x
26 | 2% | 2% | 11µM*
27 | 11% | 1% | u
28 | -1% | 1% | 5%[38.3 µM]
29 | 13µM* | -5% | 8%
30 | 4% | -3% | 6%

Continuation:
entry | SMILES | Epigenetic derep | p53 reactivation | IL2 activator
31 | COc1ccc(-c2cc(C(F)(F)F)c3c(n2)sc2c(O)cc(=O)[nH]c23)c(OC)c1 | 11µM* | 1% | 2
32 | CCN1CCc2c(sc(N)c2C#N)C1 | -1% | -7% | 0
33 | CC(C)N1CCc2c(sc(N)c2C#N)C1 | -3% | -1% | 0
34 | Cc1c(C(=O)N(C)Cc2nccs2)sc2ncnc(NCC3CCCO3)c12 (stereo not drawn) | x | x | x
35 | COc1cc(CNc2cccc3[nH]c(C(F)(F)F)nc23)cc(OC)c1 | x | 8% | 0
36 | COc1ccc(CNc2cccc3[nH]c(C(F)(F)F)nc23)cc1 | x | 12% | 0
37 | Cc1ccc(NC2=C(Cl)C(=O)OC2OC(=O)c2ccccc2)c(C)c1 (stereo not drawn) | 16µM* | 2% | -1
38 | CCOc1ccc(NC(=O)CSc2nccn2C)cc1 | 0% | 45µM* | 1
39 | Cn1ccnc1SCC(=O)Nc1ccc(Oc2ccccc2)cc1 | -2% | u | 0
40 | CC(C)[C@@H](CO)NC(=O)c1ccc2c3n(nc2c1)-c1ccccc1CO3 | -2% | 10% | 0

entry | uPA surface inh | miR-21 reporter | PINK1 modulator
31 | 2% | -11% | -1%
32 | 2% | -4% | 1%
33 | -1% | 2% | 2.8µM*
34 | x | x | 2%
35 | 17% | 4% | 32µM*
36 | -7% | 9% | u
37 | 2% | 0% | -1%
38 | -3% | -52% | 10%[38.3 µM]
39 | 10% | -16% | 3%
40 | 1.3µM* | -7% | 0%

Continuation:
entry | SMILES | Epigenetic derep | p53 reactivation | IL2 activator
41 | CC(C)NC(=O)c1ccc2c3n(nc2c1)-c1ccccc1CO3 | 0% | 3% | 0
42 | Cc1ccc2c(c1)COc1c3ccc(C(=O)O)cc3nn1-2 | x | -8% | 0
43 | COc1ccc(CN2CCCC(n3cc(C(=O)NC4CCCC4)nn3)C2)c(O)c1 (stereo not drawn) | x | x | x
44 | Cc1ccc2c(c1)cc(CN(C)Cc1nc(C)cs1)c(=O)n2C | x | x | x
45 | COC(=O)[C@@H]1CCCN1Cc1ccc2c(c1)CN(Cc1coc3ccccc3c1=O)CCO2 | x | x | x
46 | COc1cc([N+](=O)[O-])ccc1NC(=S)Nc1cc(C(=O)OC(C)C)cc(C(=O)OC(C)C)c1 | -1% | 19% | 0
47 | Cc1csc2ncnc(NNC(=O)c3ccc(Cl)cc3)c12 | 35µM* | 0% | -4

entry | uPA surface inh | miR-21 reporter | PINK1 modulator
41 | 0.79µM* | 22% | 2%
42 | u | -14% | -2%
43 | x | x | 3%
44 | x | x | 0%
45 | x | x | -1%
46 | 1% | -13% | 16µM*
47 | 5% | 14% | 2%

Given bar-delimited: entries from further up.
no. | canonical_smiles | Epigenetic derep | p53 reactivation | IL2 activator | uPA surface inh | miR-21 reporter | PINK1 modulator
41 | CC(C)NC(=O)c1ccc2c3n(nc2c1)-c1ccccc1CO3 | 0% | 3% | 0 | 0.79µM* | 22% | 2%
42 | Cc1ccc2c(c1)COc1c3ccc(C(=O)O)cc3nn1-2 | x | -8% | 0 | u | -14% | -2%
43 | COc1ccc(CN2CCCC(n3cc(C(=O)NC4CCCC4)nn3)C2)c(O)c1 (stereo not drawn) | x | x | x | x | x | 3%
44 | Cc1ccc2c(c1)cc(CN(C)Cc1nc(C)cs1)c(=O)n2C | x | x | x | x | x | 0%
45 | COC(=O)[C@@H]1CCCN1Cc1ccc2c(c1)CN(Cc1coc3ccccc3c1=O)CCO2 | x | x | x | x | x | -1%
